Assay results: ChEMBL document CHEMBL1131214, “Synthesis and biology of the conformationally restricted ACPD analogue, 2-aminobicyclo[2.1.1]hexane-2,5-dicarboxylic acid-I, a potent mGluR agonist” (J Med Chem, 1998)

Chains of the proteins cited; added tags and fusions are not shown. Lines headed by an entry give the natural chain unless they say otherwise; changes in a name come on top.
UniProt Q14833: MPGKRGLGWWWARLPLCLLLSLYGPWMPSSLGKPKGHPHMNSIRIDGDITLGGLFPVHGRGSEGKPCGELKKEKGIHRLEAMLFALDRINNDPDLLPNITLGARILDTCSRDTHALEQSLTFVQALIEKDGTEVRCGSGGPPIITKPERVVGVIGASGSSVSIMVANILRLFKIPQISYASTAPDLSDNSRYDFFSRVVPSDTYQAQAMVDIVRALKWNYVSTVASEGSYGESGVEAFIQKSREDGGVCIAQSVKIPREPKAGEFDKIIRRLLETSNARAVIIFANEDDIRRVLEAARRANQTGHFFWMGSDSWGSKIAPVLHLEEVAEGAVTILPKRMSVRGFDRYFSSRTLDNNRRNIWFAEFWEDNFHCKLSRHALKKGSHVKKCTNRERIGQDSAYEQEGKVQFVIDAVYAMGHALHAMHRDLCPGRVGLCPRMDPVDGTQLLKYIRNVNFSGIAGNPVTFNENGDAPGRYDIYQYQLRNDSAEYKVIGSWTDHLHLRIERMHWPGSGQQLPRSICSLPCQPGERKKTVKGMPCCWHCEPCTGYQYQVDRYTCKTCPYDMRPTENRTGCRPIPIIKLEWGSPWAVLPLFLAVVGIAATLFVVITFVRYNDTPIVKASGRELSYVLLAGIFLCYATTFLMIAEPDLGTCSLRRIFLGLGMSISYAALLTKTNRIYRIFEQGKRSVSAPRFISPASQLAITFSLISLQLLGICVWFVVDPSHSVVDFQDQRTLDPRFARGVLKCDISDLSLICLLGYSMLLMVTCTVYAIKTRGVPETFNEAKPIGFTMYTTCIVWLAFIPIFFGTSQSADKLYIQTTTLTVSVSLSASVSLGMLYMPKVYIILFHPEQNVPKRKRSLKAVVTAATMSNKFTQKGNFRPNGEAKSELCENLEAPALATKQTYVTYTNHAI
UniProt Q13255: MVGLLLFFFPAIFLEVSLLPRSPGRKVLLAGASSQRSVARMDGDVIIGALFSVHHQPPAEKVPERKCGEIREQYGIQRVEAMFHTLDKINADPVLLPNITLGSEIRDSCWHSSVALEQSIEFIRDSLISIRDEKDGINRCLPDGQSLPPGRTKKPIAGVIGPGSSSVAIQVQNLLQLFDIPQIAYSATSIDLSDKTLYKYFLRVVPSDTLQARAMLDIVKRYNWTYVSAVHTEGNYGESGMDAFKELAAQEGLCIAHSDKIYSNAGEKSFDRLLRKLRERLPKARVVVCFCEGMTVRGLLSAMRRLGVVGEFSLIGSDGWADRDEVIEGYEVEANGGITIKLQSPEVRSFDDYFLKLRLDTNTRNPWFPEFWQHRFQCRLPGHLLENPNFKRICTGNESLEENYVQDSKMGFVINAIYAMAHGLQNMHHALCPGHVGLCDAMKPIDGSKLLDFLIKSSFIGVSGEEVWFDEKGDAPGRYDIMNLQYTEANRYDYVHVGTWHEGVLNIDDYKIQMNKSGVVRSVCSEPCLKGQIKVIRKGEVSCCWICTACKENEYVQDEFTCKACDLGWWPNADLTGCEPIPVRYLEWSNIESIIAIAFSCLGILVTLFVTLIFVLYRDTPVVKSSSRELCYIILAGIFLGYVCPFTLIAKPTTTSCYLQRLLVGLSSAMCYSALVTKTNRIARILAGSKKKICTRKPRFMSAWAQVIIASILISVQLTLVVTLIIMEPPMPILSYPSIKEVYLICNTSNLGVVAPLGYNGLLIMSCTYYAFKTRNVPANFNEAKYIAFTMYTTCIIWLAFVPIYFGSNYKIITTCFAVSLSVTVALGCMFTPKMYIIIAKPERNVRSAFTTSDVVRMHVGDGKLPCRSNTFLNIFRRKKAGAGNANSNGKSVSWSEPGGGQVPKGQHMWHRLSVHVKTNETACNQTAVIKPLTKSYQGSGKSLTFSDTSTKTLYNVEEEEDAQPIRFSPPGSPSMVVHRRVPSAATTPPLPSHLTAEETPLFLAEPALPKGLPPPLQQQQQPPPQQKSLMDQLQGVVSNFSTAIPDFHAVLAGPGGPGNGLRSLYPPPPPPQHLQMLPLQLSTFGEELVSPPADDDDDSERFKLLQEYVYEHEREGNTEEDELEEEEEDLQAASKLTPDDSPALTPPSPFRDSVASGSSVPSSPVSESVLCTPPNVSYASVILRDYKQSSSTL

Experiments:
[1] = biological target: Metabotropic glutamate receptor 4 (Homo sapiens, UniProt Q14833); assay: Compound was tested for the inhibition of Metabotropic glutamate receptor 4
Outline: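 mGluR2 in CHO cells or mGluR4a in BHK cells. Preincubated 10 min at 37 °C in Locke's medium with 300 µM IBMX, then 10 min with 5 µM forskolin ± agonist. cAMP extracted with 0.1 M HCl and measured by RIA. Decrease in forskolin-induced cAMP given as % of the 1 mM glutamate maximum after basal subtraction. EC50 from logistic nonlinear regression.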

[2] = biological target: Metabotropic glutamate receptor 1 (Homo sapiens, UniProt Q13255); assay: Compound was tested for the inhibition of Metabotropic glutamate receptor 1

| Compound | EC50 [1] [µM] | EC50 [2] [µM] |
| --- | --- | --- |
| N[C@@]1(C(=O)O)CC[C@H](C(=O)O)C1 | 50 | > 300 |
| N[C@@]1(C(=O)O)CC[C@@H](C(=O)O)C1 (racemic) | 800 | 15 |
